What follows are molecules tested against SHP2 (Homo sapiens (Human), UniProt Q06124) (assay: SHP2 Allosteric Inhibition Assay (DiFMUP prompt fluorescence)). Conditions: not given.
Type: biochemical

Sequences of proteins named here, by UniProt entry; tags and fusion partners are left off.
UniProt Q06124, whole entry: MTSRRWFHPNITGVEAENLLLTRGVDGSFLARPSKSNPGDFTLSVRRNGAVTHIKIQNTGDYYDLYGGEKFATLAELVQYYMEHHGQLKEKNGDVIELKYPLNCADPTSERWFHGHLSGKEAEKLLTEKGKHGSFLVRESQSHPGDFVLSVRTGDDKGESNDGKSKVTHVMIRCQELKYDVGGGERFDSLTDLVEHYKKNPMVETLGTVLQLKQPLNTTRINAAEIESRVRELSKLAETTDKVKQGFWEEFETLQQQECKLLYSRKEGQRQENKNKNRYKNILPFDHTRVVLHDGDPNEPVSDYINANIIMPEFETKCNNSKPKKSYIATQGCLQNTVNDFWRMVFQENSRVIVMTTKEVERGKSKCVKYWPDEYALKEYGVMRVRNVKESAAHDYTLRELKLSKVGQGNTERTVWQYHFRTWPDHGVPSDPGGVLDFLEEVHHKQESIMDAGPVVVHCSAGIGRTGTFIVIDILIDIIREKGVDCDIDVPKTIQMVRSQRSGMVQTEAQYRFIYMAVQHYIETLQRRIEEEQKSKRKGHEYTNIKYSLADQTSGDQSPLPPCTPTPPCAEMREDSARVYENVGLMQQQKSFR

Structure (SMILES)	IC50
CC1(N)CCN(c2nc(N)c(-c3cccc(Cl)c3Cl)nc2C#N)CC1 [Example 25, 5-amino-3-(4-amino-4-methylpiperidin-1-yl)-6-(2,3-dichlorophenyl)pyrazine-2-carbonitrile]	315 nM
C[C@@H]1CN(c2cnc(-c3cccc(Cl)c3Cl)c(N)n2)C[C@H](C)N1 [Example 27, 3-(2,3-dichlorophenyl)-6-((3S,5R)-3,5-dimethylpiperazin-1-yl)pyrazin-2-amine]	570 nM
CC1(N)CCN(c2nc(N)c(-c3cccc(Cl)c3Cl)nc2Br)CC1 [Example 22, 6-(4-amino-4-methylpiperidin-1-yl)-5-bromo-3-(2,3-dichlorophenyl)pyrazin-2-amine]	169 nM
CC1(N)CCN(c2nc(N)c(-c3cccc(Cl)c3Cl)nc2Cl)CC1 [Example 23, 6-(4-amino-4-methylpiperidin-1-yl)-5-chloro-3-(2,3-dichlorophenyl)pyrazin-2-amine]	392 nM
CC1(N)CCN(c2nc(N)c(-c3cccc(Cl)c3Cl)nc2C(N)=O)CC1 [Example 26, 5-amino-3-(4-amino-4-methylpiperidin-1-yl)-6-(2,3-dichlorophenyl)pyrazine-2-carboxamide]	271 nM
Cc1nc(-c2cccc(Cl)c2Cl)c(N)nc1N1CCC(C)(N)CC1 [Example 24, 6-(4-amino-4-methylpiperidin-1-yl)-3-(2,3-dichlorophenyl)-5-methylpyrazin-2-amine]	222 nM
CC1(N)CCN(c2nnc(-c3cccc(Cl)c3Cl)c(N)n2)CC1 [Example 30, 3-(4-amino-4-methylpiperidin-1-yl)-6-(2,3-dichlorophenyl)-1,2,4-triazin-5-amine]	194 nM
CC1(N)CCN(c2ncc(-c3cc(O)cc(Cl)c3Cl)c(N)n2)CC1 [Example 6, 3-(4-amino-2-(4-amino-4-methylpiperidin-1-yl)pyrimidin-5-yl)-4,5-dichlorophenol]	225 nM

Same assay, conditions: 0.5 nM SHP2 activated with 0.5 μM peptide IRS1_pY1172(dPEG8)pY1222, substrate DiFMUP; read-out: IC50

Structure (SMILES)	IC50
CC1(N)CCN(c2ncc(-c3ccc(Cl)s3)c(N)n2)CC1 [Example 3]	950 nM
Cc1ccc(-c2cnc(N3CCC(C)(N)CC3)nc2N)s1 [Example 4]	974 nM
CC1(N)CCN(c2cnc(C3=CCCCC3)c(N)n2)CC1 [Example 29]	2580 nM

Same assay, conditions: read-out: IC50

Structure (SMILES)	IC50
COc1cc(Cl)c(Cl)c(-c2cnc(N3CCC(C)(N)CC3)nc2N)c1 [Example 5]	2860 nM
NC[C@H]1CCN(c2cnc(-c3cccc(Cl)c3Cl)c(N)n2)C1 [Example 14]	68 nM
NCC1CCN(c2cnc(-c3cccc(Cl)c3Cl)c(N)n2)CC1 [Example 9]	358 nM
Cc1cccc(-c2cnc(N3CCC(C)(N)CC3)nc2N)c1Cl [Example 2]	858 nM

Same assay, conditions: read-out: SHP2 IC50

Structure (SMILES)	IC50
CC1(N)CCN(c2cnc(-c3cccc(Cl)c3Cl)cn2)CC1	5700 nM

Reference: patent US10093646B2, “1-pyridazin-/triazin-3-yl-piper(-azine)/idine/pyrolidine derivatives and compositions thereof for inhibiting the activity of SHP2” (Novartis AG, priority 2014, dated 2018)
